Assay results from PubChem BioAssay AID624168 (Sanford-Burnham Center for Chemical Genomics, 2012).
This is a selection; strong and weak results do not stand in their true shares. Activity calls are given as the source filed them.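 Rule for the calls: active = activation of at least 8% versus controls, or a plate z-score of at least 8; inactive = the rest.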

Experiment: activators of alpha-DG glycosylation, primary screen, uHTS, Pro5-aDG cells, AlphaScreen (AID 624168);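 note: Pro5 are CHO cells carrying HIG-tagged alpha-DG that lacks glycosylation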
Details: alpha-DG glycosylation AlphaScreen (IIH6), at 10 µM, hits give high values, 0% Pro5, 100% B10-LARGE cell signal

Compound | activation
CN(C)c1cccc(C(=O)NCC2(N3CCCCC3)CCCCC2)c1 | inactive: 0.4%
O=c1[nH]c2ccccc2n1C1CCN(C(c2cc3ccccc3o2)c2nnnn2C2CCCCC2)CC1 (configuration not stated) | inactive: 3.1%
O=C(OC1CN2CCC1CC2)C1c2ccccc2Oc2ccccc21 (configuration not stated) | inactive: 0.7%
N#CC1(Nc2ccccc2)CCN(Cc2ccccc2)CC1 | inactive: 0%
O=C(NCC1(N2CCCCC2)CCCCC1)c1ccc(Cl)s1 | inactive: 0.2%
COc1ccc(Cl)cc1C(=O)NCC1(N2CCOCC2)CCCCC1 | inactive: -0.2%
CCOC(=O)N1CCC(Nc2ccc(OC)cc2)CC1 | inactive: 0.6%
CCCCn1nnnc1C(c1ccc(OC)cc1)N1CCC(n2c(=O)[nH]c3ccccc32)CC1 (configuration not stated) | inactive: -0.1%
O=c1[nH]c2ccccc2n1C1CCN(C(c2ccccc2OC(F)(F)F)c2nnnn2C2CCCCC2)CC1 (configuration not stated) | inactive: -0.4%
O=C(NCC1(N2CCCCC2)CCCCC1)c1ccc(Cl)nc1 | inactive: -0.3%
Cc1cc(C)cc(N(C(=O)c2ccccc2)C2CCN(C(=O)OC(C)(C)C)CC2)c1 | inactive: 0.3%
O=C(NCC1(N2CCOCC2)CCCCC1)c1cc2ccccc2o1 | inactive: -0.1%
CSc1ccccc1C(=O)NCC1(N2CCCCC2)CCCCC1 | inactive: 0.1%
Cc1cccc(NC2(C#N)CCN(Cc3ccccc3)CC2)c1 | inactive: -0.1%
COc1ccc(C(=O)NCC2(N3CCCCC3)CCCCC2)cc1 | inactive: -0.1%
CCC(c1nnnn1C1CCCC1)N1CCC(n2c(=O)[nH]c3ccccc32)CC1 (configuration not stated) | inactive: 0%
COc1ccc(C(=O)NCC2(N3CCCCC3)CCCCC2)c(OC)c1OC | inactive: 0.1%
CC(C)(C)OC(=O)N1CCC(N(C(=O)c2ccccc2)c2ccc(F)cc2)CC1 | inactive: 0.1%
O=C(NCC1(N2CCCCC2)CCCCC1)c1ccc(=O)[nH]c1 | inactive: 0%
CCCCn1nnnc1C(c1cccs1)N1CCC(n2c(=O)[nH]c3ccccc32)CC1 (configuration not stated) | active: 6.6%
CCCCn1nnnc1C(CC)N1CCC(n2c(=O)[nH]c3ccccc32)CC1 (configuration not stated) | inactive: -0.2%

Compound | activation
O=C(NCC1(N2CCCCC2)CCCCC1)c1cccs1 | inactive: 0%
COc1cc(C(=O)NCC2(N(C)C)CCCCC2)ccc1OC(F)F | inactive: -0.1%
CCOC(=O)N1CCC(Nc2cccc(C)c2)CC1 | inactive: -0.1%
O=c1[nH]c2ccccc2n1C1CCN(C(c2cccc3ccccc23)c2nnnn2C2CCCC2)CC1 (configuration not stated) | inactive: -0.2%
O=c1[nH]c2ccccc2n1C1CCN(C(c2ccccc2)c2nnnn2C2CCCCC2)CC1 (configuration not stated) | inactive: -0.4%
O=C(NCC1(N2CCCCC2)CCCCC1)c1ccc(F)cc1 | inactive: -0.1%
CCCCOc1ccc(C(=O)NCC2(N3CCOCC3)CCCCC2)cc1 | inactive: 0.6%
O=P1(N(CCCl)CCCl)SCCCS1 | inactive: 0.3%
CCCCn1nnnc1C(c1cc2ccccc2o1)N1CCC(n2c(=O)[nH]c3ccccc32)CC1 (configuration not stated) | inactive: -0.2%
CCOC(=O)N1CCC(Nc2ccc(F)cc2)CC1 | inactive: 0.2%
COc1ccc(NC2CCN(CCc3ccccc3)CC2)c(OC)c1 | inactive: -0.1%
CC(C)(C)n1nnnc1C(c1ccccc1)N1CCC(n2c(=O)[nH]c3ccccc32)CC1 (configuration not stated) | inactive: -0.2%
O=C1CCN(Cc2ccccc2)CC1 | inactive: -0.1%
CCOc1ccc(C)cc1CN(CCCl)CCCl | inactive: 0.1%
O=C(NCC1(N2CCCCC2)CCCCC1)c1ccco1 | inactive: 0.1%
Cn1c(=O)[nH]cc(N(CCCl)CCCl)c1=O | inactive: 0.3%
CN(C)c1ccc(C(=O)NCC2(N3CCCCC3)CCCCC2)cc1 | inactive: -0.3%
Cc1ccccc1NC1(C#N)CCN(Cc2ccccc2)CC1 | inactive: -0.1%
CC(C)(C)n1nnnc1C(c1ccnc2ccccc12)N1CCC(n2c(=O)[nH]c3ccccc32)CC1 (configuration not stated) | inactive: 0%
COc1ccc(C(c2nnnn2C2CCCCC2)N2CCC(n3c(=O)[nH]c4ccccc43)CC2)cc1 (configuration not stated) | inactive: -0.3%
CCN1CCC(Nc2cccc(F)c2)CC1 | inactive: 0.1%

Compound | activation
Cc1ccc(C(=O)NCC2(N3CCCCC3)CCCCC2)o1 | inactive: 0.2%
Fc1ccccc1NC1CCN(Cc2ccccc2)CC1 | inactive: -0.1%
Cc1ccc(NC2(C#N)CCN(Cc3ccccc3)CC2)cc1 | inactive: 0.1%
CC(=O)N(c1ccccc1)C1CCNCC1 | inactive: -0.4%
COc1cccc(C(c2nnnn2C2CCCCC2)N2CCC(n3c(=O)[nH]c4ccccc43)CC2)c1OC (configuration not stated) | inactive: -0.5%
CCC(c1nnnn1C1CCCCC1)N1CCC(n2c(=O)[nH]c3ccccc32)CC1 (configuration not stated) | inactive: 3.4%
O=c1[nH]c2ccccc2n1C1CCN(C(c2ccnc3ccccc23)c2nnnn2C2CCCCC2)CC1 (configuration not stated) | inactive: -0.1%
COc1cc(OC)cc(C(=O)NCC2(N3CCCCC3)CCCCC2)c1 | inactive: 0%
CN1CCC(Nc2ccc(Cl)cc2)CC1 | inactive: 0.2%
COc1cccc(C(=O)N(c2cc(C)cc(C)c2)C2CCN(C(=O)OC(C)(C)C)CC2)c1 | inactive: 0.3%
COc1cccc(C(c2nnnn2C2CCCC2)N2CCC(n3c(=O)[nH]c4ccccc43)CC2)c1OC (configuration not stated) | inactive: -0.3%
COc1cc(OC)cc(C(=O)NCC2(N3CCOCC3)CCCCC2)c1 | inactive: -0.1%
CCC(CO)(C(=O)OC1CN2CCC1CC2)c1ccccc1 (configuration not stated) | inactive: 0%
CC(C)(C)OC(=O)N1CCC(Nc2ccccc2)CC1 | inactive: -0.3%
NN(c1ccccc1)C1CCN(CCc2ccccc2)CC1 | inactive: -0.1%
O=C(O)C1(Nc2ccccc2)CCN(Cc2ccccc2)CC1 | inactive: 0%
CCCOc1ccc(C(=O)NCC2(N(C)C)CCCCC2)cc1 | inactive: 0.1%
O=c1[nH]c2ccccc2n1C1CCN(C(c2cc3ccccc3o2)c2nnnn2C2CCCC2)CC1 (configuration not stated) | inactive: -0.4%
CCOc1ncccc1C(=O)NCC1(N2CCOCC2)CCCCC1 | inactive: 0.2%
CN1CCC(Nc2ccc(F)c(Cl)c2)CC1 | inactive: -0.1%
O=C(OC1CN2CCC1CC2)C1c2ccccc2C=Cc2ccccc21 (configuration not stated) | inactive: -0.1%

Compound | activation
O=c1[nH]c2ccccc2n1C1CCN(C(c2cccs2)c2nnnn2C2CCCC2)CC1 (configuration not stated) | inactive: 0%
CCCCn1nnnc1C(c1cccc(OC)c1OC)N1CCC(n2c(=O)[nH]c3ccccc32)CC1 (configuration not stated) | inactive: -0.3%
COc1cccc(C(c2nnnn2C(C)(C)C)N2CCC(n3c(=O)[nH]c4ccccc43)CC2)c1OC (configuration not stated) | inactive: -0.1%
CCOC(=O)N1CCC(Nc2ccc(C)cc2)CC1 | inactive: 0%
N/C(=N\O)c1c(N)no[n+]1[O-] | inactive: 0.4%
O=c1[nH]c2ccccc2n1C1CCN(C(c2cccs2)c2nnnn2C2CCCCC2)CC1 (configuration not stated) | inactive: -0.5%
COc1ccc(C(=O)NCC2(N3CCOCC3)CCCCC2)cc1OC | inactive: 0.2%
O=c1[nH]c2ccccc2n1C1CCN(C(c2ccnc3ccccc23)c2nnnn2C2CCCC2)CC1 (configuration not stated) | inactive: -0.1%
CCCCn1nnnc1C(c1ccccc1)N1CCC(n2c(=O)[nH]c3ccccc32)CC1 (configuration not stated) | inactive: -0.2%
COc1cc(C(=O)NCC2(N3CCOCC3)CCCCC2)cc(OC)c1C | inactive: 0.3%
O=C(NCC1(N2CCOCC2)CCCCC1)c1cc(Br)ccc1Cl | inactive: 0.2%
CC(C)(C)n1nnnc1C(c1cccc2ccccc12)N1CCC(n2c(=O)[nH]c3ccccc32)CC1 (configuration not stated) | inactive: 0.1%
CN(C)C1(CNC(=O)c2cccc(C#N)c2)CCCCC1 | inactive: 0%
c1ccc(CN2CCC(Nc3ccccc3)CC2)cc1 | inactive: 0.3%
O=c1[nH]c2ccccc2n1C1CCN(C(c2ccccc2)c2nnnn2C2CCCC2)CC1 (configuration not stated) | inactive: -0.2%
CCCN1CCC(Nc2cc(OC)cc(OC)c2)CC1 | inactive: -0.1%
Cc1cc(N(CCCl)CCCl)ccc1C=O | inactive: 0.3%
N#Cc1ccc(C(=O)NCC2(N3CCCCC3)CCCCC2)cc1 | inactive: -0.1%
CC(C)(C)OC(=O)N1CCC(N(C(=O)c2ccccc2)c2ccc(Cl)cc2)CC1 | inactive: 0%
